From ChEMBL document CHEMBL1275370, “The binding of β-d-glucopyranosyl-thiosemicarbazone derivatives to glycogen phosphorylase: A new class of inhibitors” (Bioorg Med Chem, 2010)
pIC50, pKi: −log10 of the molar value.

What was measured:
[1] = biological target: T1, Glycogen phosphorylase, muscle form (Oryctolagus cuniculus, UniProt P00489)
T1 sequence (P00489 whole entry): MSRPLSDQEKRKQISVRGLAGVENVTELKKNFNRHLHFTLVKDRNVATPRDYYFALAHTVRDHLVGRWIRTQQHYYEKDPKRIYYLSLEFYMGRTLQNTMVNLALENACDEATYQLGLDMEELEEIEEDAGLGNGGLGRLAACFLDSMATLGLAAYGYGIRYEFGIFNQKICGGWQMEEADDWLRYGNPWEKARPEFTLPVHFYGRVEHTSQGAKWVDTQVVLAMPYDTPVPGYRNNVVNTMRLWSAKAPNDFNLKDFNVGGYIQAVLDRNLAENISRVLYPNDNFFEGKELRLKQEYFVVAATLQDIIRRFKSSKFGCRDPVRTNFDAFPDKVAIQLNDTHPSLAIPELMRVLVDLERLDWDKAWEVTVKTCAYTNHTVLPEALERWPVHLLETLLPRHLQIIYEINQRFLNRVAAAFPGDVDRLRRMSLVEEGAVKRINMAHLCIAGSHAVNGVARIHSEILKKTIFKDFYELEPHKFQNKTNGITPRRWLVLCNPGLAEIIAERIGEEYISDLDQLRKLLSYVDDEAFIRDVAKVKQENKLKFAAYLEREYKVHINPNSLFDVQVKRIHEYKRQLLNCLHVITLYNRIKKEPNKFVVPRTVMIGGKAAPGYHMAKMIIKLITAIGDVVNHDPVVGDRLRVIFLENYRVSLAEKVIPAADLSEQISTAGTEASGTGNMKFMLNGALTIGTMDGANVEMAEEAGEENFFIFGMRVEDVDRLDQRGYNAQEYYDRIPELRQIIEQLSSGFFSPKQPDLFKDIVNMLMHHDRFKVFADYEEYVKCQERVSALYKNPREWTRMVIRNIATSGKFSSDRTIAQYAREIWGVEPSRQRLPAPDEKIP

[2] = biological target: Glycogen phosphorylase, muscle form (Oryctolagus cuniculus) (UniProt P00489); test: Inhibition of glycogen phosphorylase b

CC[C@H]1O[C@@H](NC(=S)N/N=C/c2ccc(F)cc2)[C@H](O)[C@@H](O)[C@@H]1O
pIC50 [1]: 5.24 | pKi [2]: 5.34
